Laboratory results: patent publication US20260125679A1, “FINE-TUNING INFLAMMATION BY ALTERING 3'UTR LENGTH” (priority 2023, published 2026)

Test system: Sindbis virus (SINV)
Test: Sindbis virus dual reporter infection of transfected HEK-293T cells (flow cytometry)
Type: cell-based
Excerpt: FIGS. 5A-5E. Ectopic HuB/C/D expression in HEK-293T cells protects against Sindbis virus (SINV) infection. (A-B) Effects of HuB/C/D ectopic expression on the global transcriptome. (A) Volcano plot showing differential expression of genes between WT HEK-293T_HuB/C/D (n=3 biological replicates) vs. WT HEK-293T_EV cells (n=3 biological replicates). Empty vector, EV. […] Ectopically expressed ELAVL2, -3, -4 (HuB, -C, -D) and interferon-stimulated genes (ISGs) are marked with a black border. […] The y-axis represents different pathways, and the x-axis represents the ratio of the differentially expressed genes. Darker red dots represent more significant enrichment. The circle size indicates the number of genes enriched in the pathway. (C-E) EV, HuB, or HuB/C/D transfected WT HEK-293T cells were infected with a Sindbis virus (SINV) dual reporter (MOI=1); BFP reports for SINV genomic mRNA and GFP for SINV subgenomic mRNA. For Pre-IFNβ set, cells were pre-treated with 0.05 nM of IFNβ for 24 hours pre-infection. For Post-IFNβ set, cells were treated with 0.05 nM of IFNβ 1 hour post-infection until harvest. […]
Cells were detached with accumax (Stem Cell Technologies) and fixed using 2% paraformaldehyde for 20 minutes at 4° C. Samples were resuspended in 3% FBS solution and analyzed using a BD LSR Fortessa flow cytometer (BD Biosciences).

B1: IFNβ: type I interferon used at 0.05 nM as pre- or post-infection treatment (protein, UniProt P01574 22-187, looked up)
Interferon beta: MSYNLLGFLQRSSNFQCQKLLWQLNGRLEYCLKDRMNFDIPEEIKQLQQFQKEDAALTIYEMLQNIFAIFRQDSSSTGWNETIVENLLANVYHQINHLKTVLEEKLEKEDFTRGKLMSSLHLKRYYGRILHYLKAKEYSHCAWTIVRVEILRNFYFINRLTGYLRN
- antiviral activity against SINV (0.05 nM IFNβ for 24 hours pre-infection): more potent antiviral activity
- antiviral activity against SINV (0.05 nM IFNβ from 1 hour post-infection until harvest): some protective effect
